Earlier results on one compound are cited in patent publication US8551516B2, “Administration of non-oral androgenic steroids to women” (Actavis, Inc., priority 1999, dated 2013).

Chains of the proteins cited; added tags and fusions are not shown. Residues count along the entry.
UniProt P02768, 25-609: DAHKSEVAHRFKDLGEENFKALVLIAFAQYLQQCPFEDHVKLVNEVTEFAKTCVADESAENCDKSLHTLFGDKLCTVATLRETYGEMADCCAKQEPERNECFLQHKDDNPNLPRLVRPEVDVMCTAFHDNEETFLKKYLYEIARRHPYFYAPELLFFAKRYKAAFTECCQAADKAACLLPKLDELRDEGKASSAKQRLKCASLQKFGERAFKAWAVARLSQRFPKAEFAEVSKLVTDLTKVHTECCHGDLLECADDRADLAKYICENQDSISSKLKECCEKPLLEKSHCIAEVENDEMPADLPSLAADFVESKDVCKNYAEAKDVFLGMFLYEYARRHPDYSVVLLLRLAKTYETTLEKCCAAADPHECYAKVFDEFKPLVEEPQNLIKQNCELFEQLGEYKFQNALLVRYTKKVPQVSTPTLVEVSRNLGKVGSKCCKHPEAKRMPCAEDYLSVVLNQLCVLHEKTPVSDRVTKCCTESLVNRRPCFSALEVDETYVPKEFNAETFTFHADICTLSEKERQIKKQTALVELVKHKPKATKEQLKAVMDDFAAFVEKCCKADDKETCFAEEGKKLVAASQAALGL

This data set deals with serum albumin (Homo sapiens, UniProt P02768). The note with it: Vermeulen et al. 1999; cited from earlier work.

Take `C[C@]12CC[C@H]3[C@@H](CCC4=CC(=O)CC[C@@]43C)[C@@H]1CC[C@@H]2O` [testosterone, (17)-17-Hydroxyandrost-4-en-3-one]: the albumin-testosterone binding constant is 36000 L/mol.
